Source: publication PMC4844702, “Selective inhibition of the kinase DYRK1A by targeting its folding process” (Nature Communications, 2016)

Key:
DYRK1A = DYRK1A (Homo sapiens, UniProt Q13627); assay: SPHINKS assay: TAU (Thr212) phosphorylation by induced DYRK1A in HEK293 cells, western blot; format: cell-based; settings: 10 μM, compound added after accumulation of mature DYRK1A
[1] = molecular target: human DYRK1A kinase domain (Homo sapiens, UniProt Q13627); assay: RI-in vitro kinase assay with DYRKtide; format: biochemical; settings: read-out: IC50, kinase activity of recombinant DYRK1A; DYRKtide substrate; Supplementary Fig. 13d, n=3
FLAG-DYRK1A = FLAG-DYRK1A (Homo sapiens, UniProt Q13627); assay: 2A peptide bicistronic FLAG-DYRK1A/HA-EGFP expression in HEK293 cells, western blot; format: cell-based; settings: added with doxycycline, 5 h

C[Si](C)(C)C#Cc1cc(/C=C2\SC(=S)NC2=O)ccc1O
TAU phosphorylation in Tc 2 (DYRK1A): inhibited
IC50 [1]: 1090 nM
amount of FLAG-DYRK1A (destabilization) (FLAG-DYRK1A): did not destabilize
